In assay [1] the target is Cytochrome P450 2C9 (Homo sapiens, UniProt P11712).
The target of assay [2] is Cytochrome P450 2D6 (Homo sapiens, UniProt P10635).
Assay [3] has as its target Cytochrome P450 2C8 (Homo sapiens, UniProt P10632).
Assay [4] addresses Cytochrome P450 2C19 (Homo sapiens, UniProt P33261).

Chains of the proteins cited; added tags and fusions are not shown.
UniProt P11712, whole entry: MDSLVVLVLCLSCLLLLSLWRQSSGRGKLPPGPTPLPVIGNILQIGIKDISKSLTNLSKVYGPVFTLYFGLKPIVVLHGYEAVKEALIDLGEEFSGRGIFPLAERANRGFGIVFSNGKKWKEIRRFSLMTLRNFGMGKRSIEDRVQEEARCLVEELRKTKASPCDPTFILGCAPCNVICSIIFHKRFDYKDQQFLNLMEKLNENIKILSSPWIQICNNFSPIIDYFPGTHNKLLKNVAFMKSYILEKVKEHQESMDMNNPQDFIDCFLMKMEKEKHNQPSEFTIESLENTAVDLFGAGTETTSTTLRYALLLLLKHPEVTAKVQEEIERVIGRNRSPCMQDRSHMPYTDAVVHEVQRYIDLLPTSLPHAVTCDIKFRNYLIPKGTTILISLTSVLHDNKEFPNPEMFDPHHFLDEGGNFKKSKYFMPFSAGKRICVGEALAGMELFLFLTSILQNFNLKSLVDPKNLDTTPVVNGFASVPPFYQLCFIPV
UniProt P10635, whole entry: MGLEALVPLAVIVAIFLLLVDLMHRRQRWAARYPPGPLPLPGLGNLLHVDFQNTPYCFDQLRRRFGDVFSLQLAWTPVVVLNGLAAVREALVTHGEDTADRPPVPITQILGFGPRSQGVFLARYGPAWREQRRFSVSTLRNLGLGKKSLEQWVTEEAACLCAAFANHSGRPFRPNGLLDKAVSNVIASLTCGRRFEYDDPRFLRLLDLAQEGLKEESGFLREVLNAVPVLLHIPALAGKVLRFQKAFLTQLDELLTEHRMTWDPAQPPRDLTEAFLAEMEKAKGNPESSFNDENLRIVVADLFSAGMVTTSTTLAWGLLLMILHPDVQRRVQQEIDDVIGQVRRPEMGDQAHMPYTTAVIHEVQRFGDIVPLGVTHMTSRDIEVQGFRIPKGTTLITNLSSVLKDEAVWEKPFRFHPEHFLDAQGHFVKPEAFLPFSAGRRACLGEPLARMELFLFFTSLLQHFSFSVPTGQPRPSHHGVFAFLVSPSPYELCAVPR
UniProt P10632, whole entry: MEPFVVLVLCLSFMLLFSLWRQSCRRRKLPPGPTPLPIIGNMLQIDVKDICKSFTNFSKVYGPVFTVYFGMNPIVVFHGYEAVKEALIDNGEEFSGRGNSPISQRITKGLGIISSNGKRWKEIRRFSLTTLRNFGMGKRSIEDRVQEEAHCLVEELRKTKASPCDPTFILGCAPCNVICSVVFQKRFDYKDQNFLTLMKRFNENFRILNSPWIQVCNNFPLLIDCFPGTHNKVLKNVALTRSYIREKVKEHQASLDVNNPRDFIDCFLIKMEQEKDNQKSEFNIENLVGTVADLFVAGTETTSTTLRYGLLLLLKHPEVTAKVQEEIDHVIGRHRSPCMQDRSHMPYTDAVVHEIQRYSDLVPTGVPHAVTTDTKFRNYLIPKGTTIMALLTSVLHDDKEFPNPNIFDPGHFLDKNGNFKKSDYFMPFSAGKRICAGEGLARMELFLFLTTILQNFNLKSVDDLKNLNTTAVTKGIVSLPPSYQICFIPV
UniProt P33261, whole entry: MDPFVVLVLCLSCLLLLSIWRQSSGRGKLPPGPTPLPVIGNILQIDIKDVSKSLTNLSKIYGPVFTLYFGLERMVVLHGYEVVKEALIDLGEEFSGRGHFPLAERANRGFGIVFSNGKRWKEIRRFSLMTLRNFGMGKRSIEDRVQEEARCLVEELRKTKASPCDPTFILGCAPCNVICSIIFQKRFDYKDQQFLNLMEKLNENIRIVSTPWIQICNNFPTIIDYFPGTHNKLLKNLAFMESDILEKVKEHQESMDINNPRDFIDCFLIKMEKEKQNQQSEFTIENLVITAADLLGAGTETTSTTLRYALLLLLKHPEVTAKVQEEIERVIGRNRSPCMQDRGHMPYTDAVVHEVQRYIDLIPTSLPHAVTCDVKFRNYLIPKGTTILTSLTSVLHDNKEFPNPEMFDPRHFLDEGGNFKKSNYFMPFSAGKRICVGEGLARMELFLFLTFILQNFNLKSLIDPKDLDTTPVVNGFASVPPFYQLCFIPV

SMILES strings stand for the structures.

The compound `CC(C)COCC(CN(Cc1ccccc1)c1ccccc1)N1CCCC1` (stereo not drawn) [BEPRIDIL] had an IC50 in assay [1] of more than 30 µM.

On to `C#C[C@]1(O)CC[C@H]2[C@@H]3CCC4=Cc5oncc5C[C@]4(C)[C@H]3CC[C@@]21C` [DANAZOL], for which the IC50 in assay [1] was 1.44 µM; in assay [2], 2.74 µM.

With `COC(=O)C1=C(C)NC(C)=C(C(=O)OC(C)C)C1c1cccc2nonc12` (stereo not drawn) [ISRADIPINE], the IC50 in assay [3] amounted to 5 µM.

For the compound `O=c1[nH]c2ccccc2n1C1CCN(CCCC(c2ccc(F)cc2)c2ccc(F)cc2)CC1` [PIMOZIDE], the IC50 in assay [1], in assay [4] and in assay [2] was more than 30 µM each time.

`O=c1c(O)c(-c2ccc(O)c(O)c2)oc2cc(O)cc(O)c12` [QUERCETIN] returned an IC50 in assay [1] of 10.2 µM.

A word on the IC50: it is the concentration that gives 50% inhibition.

Source of the values: ChEMBL document CHEMBL3526133, “Identifying a selective substrate and inhibitor pair for the evaluation of CYP2J2 activity” (Drug Metab Dispos, 2012).
